Reference: patent publication US20220047701A1, “COMBINATION OF HER2/NEU ANTIBODY WITH HEME FOR TREATING CANCER” (INSERM (Institut National de la Santé et de la Recherche …, priority 2018, published 2022)

How the values were obtained:
[1] = Size-exclusion chromatography, molecular composition; assay type: physicochemical; details: 6.7 μM IgG, 13.4 μM heme where exposed
[2] = system: MDA-MB-231 cells; assay: Flow cytometry binding to breast cancer cells (MDA-MB-231); assay type: cell-based, human; details: low HER2/neu expression; 10 μg/ml
[3] = system: immobilized Trastuzumab; assay: ELISA induction of antibody homophilicity by heme; assay type: binding; details: biotinylated Trastuzumab
Protocol: The plates were blocked with PBS 0.25% containing Tween 20 for 1 hour. […] IgG was then diluted two times in PBS-T before incubation on plates for 2 h at room temperature. Following extensive washing, the plates were incubated for 30 min with streptavidin-HRP (Southern Biotech).
To evaluate the specificity of heme, this method was performed using an analog of heme, zinc protoporphyrin (ZnPP). […] IgG was then diluted ten times in PBS-T before incubation on the plates for 2 h at room temperature.

[4] = system: recombinant human neonatal Fc receptor (FcRn); assay: SPR binding of heme-exposed Trastuzumab to FcRn; details: pH 5.4, 25° C., native vs heme-exposed
[5] = system: MDA-MB-231 cells; assay: Direct and complement-mediated cytotoxicity (WST-1), MDA-MB-231; assay type: cell-based, human; details: in the presence of complement
Protocol: (§1) Cells were treated on 96-wells plates with flat bottom and low evaporation lid (Coster, USA). MDA-MB-231 or SKBR3 breast cancer cells were plated and left for 2 hours to adhere. […] The Ab was diluted to a final concentration of 3.7 μg/ml. As a source of complement, baby rabbit complement (AbD Serotec) was added to obtain a dilution of ×5 (MDA-MB-231 cells) or ×8 (SKBR3 cells). As control, heat inactivated fetal calf serum was added at the same ratios. To evaluate the amount of alive cells, WST-1 dye (Roche) was added after 5 days of incubation at 37° C. The absorbance at 450 nm and 690 nm was read after 2 hours incubation at 37° C.

[6] = biological target: HER2/neu mimotope; assay: SPR binding of native and heme-exposed Trastuzumab to HER-2 mimotope; parameters: species or system human; details: immobilized HER2/neu mimotope
[7] = system: more than 9,000 human proteins; assay: Protein microarray (ProtoArray) reactivity; assay type: binding
Protocol: First, the arrays were equilibrated at 4° C. for 15 min and then incubated with blocking buffer recommended by the manufacturer for 1 h at 4° C. on a circular shaker. After incubation, microarrays were washed once with PBS, 0.1% Tween 20, containing synthetic block (ThermoFisher Scientific) for 5 min. The monoclonal IgG1 (10 μM) was pre-treated or not with heme (20 μM). […] Following 90 min of incubation at 4° C. on a circular shaker, each array was washed 5 times for 5 min each at 4° C. […] As described previously, the arrays were washed 5 times before being centrifuged in a 50 ml tube at 200×g for 1 minute at room temperature. Scanning of the arrays was performed on the next day with a GenePix 4000B Microarray Scanner. Fluorescence data were acquired by aligning the Genepix Array List onto the microarray using Genepix Pro analysis software. The resulting Genepix Results (GPR) files were imported into Invitrogen's Prospector 5.2 for further analysis.

[8] = system: SKBR3 cells; assay: Direct and complement-mediated cytotoxicity (WST-1), SKBR3; assay type: cell-based, human; details: for complement-dependent cytotoxicity: in the presence of complement
Protocol: as §1

[9] = system: Thyroglobulin, Factor IX, hemoglobin, myoglobin, cytrochrome c, insulin; assay: ELISA reactivity to a panel of antigens after heme exposure; assay type: binding
[10] = system: breast cancer cells; assay: Deposition of C3 on the surface of breast cancer cells (flow cytometer); assay type: cell-based; details: antibody pre-treated with 14 μM heme; 50% human serum
[11] = system: MDA-MB-231 cells; assay: Antibody-mediated cellular cytotoxicity with PBMCs (HER2/neu low expressing line); assay type: cell-based, human; details: 4 h with PBMCs, LDH release
[12] = system: SK-BR-3 cells; assay: Antibody-mediated cellular cytotoxicity with PBMCs (HER2/neu high expressing line); assay type: cell-based, human; details: 4 h with PBMCs, LDH release
[13] = system: SK-BR-3 cells; assay: Flow cytometry binding to breast cancer cells (SK-BR-3); assay type: cell-based, human; details: high HER2/neu expression; 10 μg/ml; heme-exposed vs native

| Substance | molecular composition (elution) [1] | binding to cells [2] | self-binding to immobilized Trastuzumab [3] | binding affinity to FcRn [4] | complement-dependent cytotoxicity [5] | Kd [6] [nM] | binding to human proteins [7] | complement-dependent cytotoxicity [8] | other results |
| --- | --- | --- | --- | --- | --- | --- | --- | --- | --- |
| Fc fragments: Fc fragments of Trastuzumab exposed to heme | remained in a monomeric form | – | – | – | – | – | – | – | – |
| Trastuzumab: human epidermal factor receptor (HER2/neu)-specific humanized IgG1 [reference compound] | eluted only as monomers | low intensity | negligible self-binding activity | identical binding affinities | negligible decrease in the percentage of live cells | 3.8 | binding to very few proteins | – | cytotoxicity ([8]; in the presence of Trastuzumab): clear cytotoxicity; reactivity to insulin ([9]; after exposure to heme): not affected by heme |
| first two oligomeric fractions: first two of the oligomeric fractions of heme-treated Trastuzumab from size-exclusion chromatography | – | – | – | – | – | – | – | even higher cytotoxic effect than the heme-treated Ab | – |
| heme-exposed Trastuzumab: Trastuzumab pre-treated with heme; elutes as monomeric and oligomeric species | eluted both as monomeric and oligomeric species | No significant difference | strong binding in a bell-shaped dependent manner | identical binding affinities | no significant difference | 6.6 | considerable gain of reactivity by binding to a large number of human proteins | significantly higher | deposition of C3 / complement activation on the cellular surface [10]: considerably high capacity to activate the complement on the cellular surface; ADCC cytotoxic potential, heme-exposed vs native [11]: No difference in the cytotoxic potential; ADCC cytotoxic potential, heme-exposed vs native [12]: No difference in the cytotoxic potential; binding to cells [13]: no difference between native and heme-exposed Ab; binding to panel of unrelated polypeptide antigens ([9]; heme 0, 0.078-20 μM, IgG 0.2 μM): binding to most of them, in a heme concentration dependent manner |
| monomeric fraction: monomeric fraction of heme-treated Trastuzumab collected by size-exclusion chromatography | – | – | – | – | – | – | – | same cytotoxic effect as the native Trastuzumab | – |
| oligomeric fractions: the 3 oligomeric fractions of heme-treated Trastuzumab collected by size-exclusion chromatography | – | – | – | – | – | – | – | same cytotoxic effect as the heme-treated Trastuzumab | – |
